# The entries are a selection whose mix differs from that of the whole data set. Some of these compounds have results that are not shown, active ones among them. Inconclusive results are not listed. The source made the active and inactive calls. Calls follow the shape of the dose curve; as a rule, active = well fitted curve in the direction sought with a large enough effect; inconclusive = small, poorly fitted or top-dose-only effect; inactive = flat fitted curve, though single readings scatter.
# Assay: Counterscreen qHTS for Inhibitors of Tau Fibril Formation, Fluorescence Polarization; also: nearly all actives have a fitted effect of over 55% in size
# Conditions: tau K18 P301L (four-repeat tau fragment) Alexa594 fluorescence, heparin fibrillization; at 57.7 µM (top of the series)
# % is scaled to controls: 0 for no effect and ±100 for the full control effect.
row,SMILES,"activity change, negative = decrease"
1,O=C(NCC1(N2CCCCC2)CCCCC1)c1cc([N+](=O)[O-])ccc1Cl,inactive: -9.26%
2,CN(C)C1(CNC(=O)c2ccccc2F)CCCCC1,inactive: 0.725%
3,CC(C)N1C(=O)CC2(CCN(CCOC(=O)C(O)(c3ccccc3)c3ccccc3)CC2)C1=O,inactive: -2.01%
4,CN(C)C1(CNC(=O)c2cccc(Cl)c2)CCCCC1,inactive: -4.15%
5,CCN(CC)CC(C)C(C)OC(=O)C(O)(c1ccccc1)c1ccccc1 (configuration not stated),inactive: 0.195%
6,CCCCOc1ccccc1C(=O)NCC1(N(C)C)CCCCC1,inactive: -4.42%
7,CN(C)C1CCCC1OC(=O)C(O)(c1ccccc1)c1ccccc1 (configuration not stated),inactive: 2.51%
8,CN(C)C1(CNC(=O)c2ccccc2[N+](=O)[O-])CCCCC1,inactive: -12.4%
9,Cc1ccccc1C(=O)NCC1(N2CCCCC2)CCCCC1,inactive: 9.95%
10,CCN1CCCC(OC(=O)C2(O)c3ccccc3C=Cc3ccccc32)C1 (configuration not stated),inactive: 6.54%
11,CCOc1cccc(C(=O)NCC2(N(C)C)CCCCC2)c1,inactive: 10.3%
12,C=CCN1CCN(CCOC(=O)C(O)(c2ccccc2)c2ccccc2)CC1,inactive: -1.75%
13,COc1ccc(C(=O)NCC2(N(C)C)CCCCC2)cc1Cl,inactive: 5.68%
14,COc1cccc(C(=O)NCC2(N3CCCCC3)CCCCC2)c1,inactive: 2.86%
15,CC(C)COc1ccc(C(=O)NCC2(N(C)C)CCCCC2)cc1,inactive: -4.4%
16,O=C(OC1CN2CCC1CC2)C(CO)(c1ccccc1)c1ccccc1 (configuration not stated),inactive: 2.1%
17,COc1cccc(C(=O)NCC2(N3CCOCC3)CCCCC2)c1,inactive: -11.2%
18,CN(C)c1cccc(C(=O)NCC2(N(C)C)CCCCC2)c1,inactive: -2.08%
19,CC(C)Oc1ccc(C(=O)NCC2(N(C)C)CCCCC2)cc1,inactive: 2.56%
20,COc1ccc(Br)c(C(=O)NCC2(N3CCCCC3)CCCCC2)c1,inactive: -2.2%
21,COc1cc(C(=O)NCC2(N(C)C)CCCCC2)cc(OC)c1OC,inactive: 2.9%
22,Cc1cccc(C(=O)NCC2(N(C)C)CCCCC2)c1,inactive: 5.4%

# — PubChem BioAssay AID1463 (National Center for Advancing Translational Sciences (NCATS), 2008)
